According to article PMC5799093, “Proceedings of Réanimation 2018, the French Intensive Care Society International Congress” (Annals of Intensive Care, 2018):

Tests used:
[1] = Acute insulin overdose with suicidal attempt; format: in vivo, patients
[2] = tested on: Stenotrophomonas maltophilia VAP; experiment: Risk factors for Stenotrophomonas maltophilia VAP, matched analysis; format: in vivo, patients; conditions: exposure during the week before VAP
Procedure: Patients and methods: We conducted a retrospective analysis of prospectively collected data in a multicenter database in France. VAP was determined as microbiologically documented pneumonia occurring after at least two days of mechanical ventilation. All patients admitted from 2000 to 2015 presenting at least one episode of VAP were included. SM-VAP were compared with VAP due to other micro-organisms (VAP-other). To assess risk factors and day-30 (D30) mortality, SM-VAP were matched (1 − n) with VAP-other based on center, time from ICU admission to VAP occurrence, and SAPS II score.

[3] = tested on: patients after out-of-hospital cardiac arrest; experiment: Double-blind randomized trial of short-term antibiotic prophylaxis after cardiac arrest with therapeutic hypothermia (early VAP); conditions: in vivo

## insulin
[1]; [36 + 71], 62 patients
  median capillary glycaemia on the first medical contact: 44 mg·dL
[1]; in vivo
  favorable outcome: 95%
  hypokalemia: 29%

## Imipenem-Meropenem
[2]
  OR for SM-VAP, multivariate analysis: 2.68 [1.51;4.75]
[2]; 93 cases, 380 controls
  OR for SM-VAP, univariate analysis: 3.18 [1.82 ; 5.49]

## amoxicillin-clavulanic acid
[3]
  adverse events related to study treatment: no adverse event was related to study treatment
